The results in this text go back to patent US10329278B2, “Pharmaceutical compounds” (Heptares Therapeutics Limited, priority 2017, dated 2019).

Protein sequences, listed by entry. Tags and fused reporters are not part of them.
UniProt P11229, whole entry: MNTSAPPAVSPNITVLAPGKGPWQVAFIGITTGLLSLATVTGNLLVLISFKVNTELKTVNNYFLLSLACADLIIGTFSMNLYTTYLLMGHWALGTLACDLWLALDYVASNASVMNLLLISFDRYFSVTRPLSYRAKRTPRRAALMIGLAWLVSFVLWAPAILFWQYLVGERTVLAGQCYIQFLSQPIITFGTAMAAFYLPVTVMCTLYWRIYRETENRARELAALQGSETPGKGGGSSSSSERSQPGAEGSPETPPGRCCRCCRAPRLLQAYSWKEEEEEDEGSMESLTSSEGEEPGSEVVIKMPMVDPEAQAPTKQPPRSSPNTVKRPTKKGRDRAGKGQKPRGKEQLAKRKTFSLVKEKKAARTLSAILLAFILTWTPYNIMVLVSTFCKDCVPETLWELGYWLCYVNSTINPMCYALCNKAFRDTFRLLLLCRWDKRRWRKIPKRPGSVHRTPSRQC
UniProt P08172, whole entry: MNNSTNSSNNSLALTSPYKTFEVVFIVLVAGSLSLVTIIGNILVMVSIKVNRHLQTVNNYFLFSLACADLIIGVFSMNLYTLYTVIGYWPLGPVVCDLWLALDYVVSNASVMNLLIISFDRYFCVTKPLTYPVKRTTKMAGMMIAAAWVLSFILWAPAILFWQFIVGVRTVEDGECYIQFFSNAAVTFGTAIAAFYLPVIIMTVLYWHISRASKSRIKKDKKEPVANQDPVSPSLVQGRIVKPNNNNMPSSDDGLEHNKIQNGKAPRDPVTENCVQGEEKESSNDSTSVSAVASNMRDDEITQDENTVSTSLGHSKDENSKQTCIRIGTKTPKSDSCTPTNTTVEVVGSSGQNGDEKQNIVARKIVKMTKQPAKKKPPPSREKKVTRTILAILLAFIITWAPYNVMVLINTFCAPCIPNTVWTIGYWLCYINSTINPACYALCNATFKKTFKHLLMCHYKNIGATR
UniProt P20309, whole entry: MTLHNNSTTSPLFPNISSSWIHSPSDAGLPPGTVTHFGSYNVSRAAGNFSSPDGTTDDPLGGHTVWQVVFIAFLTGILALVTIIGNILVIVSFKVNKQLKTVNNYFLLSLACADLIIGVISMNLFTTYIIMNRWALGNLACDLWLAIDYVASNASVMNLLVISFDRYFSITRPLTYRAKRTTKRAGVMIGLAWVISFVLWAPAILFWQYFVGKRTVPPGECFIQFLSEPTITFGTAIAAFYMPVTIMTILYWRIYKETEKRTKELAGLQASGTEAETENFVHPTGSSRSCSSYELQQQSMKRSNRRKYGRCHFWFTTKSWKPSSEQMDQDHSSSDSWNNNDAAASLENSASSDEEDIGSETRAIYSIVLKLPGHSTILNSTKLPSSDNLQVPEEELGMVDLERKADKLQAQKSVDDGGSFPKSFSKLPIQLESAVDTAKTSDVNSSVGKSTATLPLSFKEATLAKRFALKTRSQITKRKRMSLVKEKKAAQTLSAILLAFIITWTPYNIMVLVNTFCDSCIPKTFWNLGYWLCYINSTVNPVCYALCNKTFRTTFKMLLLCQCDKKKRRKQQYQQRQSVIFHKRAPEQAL
UniProt P08173, whole entry: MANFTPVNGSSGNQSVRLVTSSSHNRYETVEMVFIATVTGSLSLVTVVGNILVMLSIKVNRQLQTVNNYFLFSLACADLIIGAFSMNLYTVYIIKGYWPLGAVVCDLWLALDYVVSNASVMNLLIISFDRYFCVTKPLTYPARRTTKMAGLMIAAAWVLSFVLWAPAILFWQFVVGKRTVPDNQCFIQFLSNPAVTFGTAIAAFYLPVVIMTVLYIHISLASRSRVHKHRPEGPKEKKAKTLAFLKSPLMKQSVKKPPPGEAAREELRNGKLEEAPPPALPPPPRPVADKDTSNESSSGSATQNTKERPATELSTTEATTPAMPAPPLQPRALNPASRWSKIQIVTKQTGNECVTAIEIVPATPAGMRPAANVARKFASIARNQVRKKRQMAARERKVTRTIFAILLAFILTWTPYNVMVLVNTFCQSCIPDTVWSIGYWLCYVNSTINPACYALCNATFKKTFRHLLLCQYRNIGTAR

Assay [1] concerns the target human muscarinic M1 receptor (Homo sapiens, UniProt P11229). The assay can be described thus: Alphascreen Surefire phospho-ERK1/2 functional assay, M1. The conditions noted are these: CHO cells stably expressing human M1; for pEC50 M1: agonist 5 min, 37° C.; for % Emax cf. ACh (M1): relative to ACh. (In Alpha technology, singlet oxygen from a donor bead excites a nearby acceptor bead.)

The target of assay [2] is human muscarinic M2 receptor (Homo sapiens, UniProt P08172). The assay can be described thus: Alphascreen Surefire phospho-ERK1/2 functional assay, M2. It counts as cell-based. The conditions noted are these: CHO cells stably expressing human M2; relative to ACh.
Assay [3] concerns the target human muscarinic M3 receptor (Homo sapiens, UniProt P20309). The assay can be described thus: Alphascreen Surefire phospho-ERK1/2 functional assay, M3. It counts as cell-based. The conditions noted are these: CHO cells stably expressing human M3; for pEC50 M3: agonist 5 min, 37° C.; for % Emax cf. ACh (M3): relative to ACh.
Assay [4] deals with human muscarinic M4 receptor (Homo sapiens, UniProt P08173). Kind of assay: Alphascreen Surefire phospho-ERK1/2 functional assay, M4. The note with it: CHO cells stably expressing human M4; for pEC50 M4: agonist 5 min, 37° C.; for % Emax cf. ACh (M4): relative to ACh. Format: cell-based.

As for `CCOC(=O)N1CCC2(CC(N3C[C@@H]4[C@H](C3)[C@H]4C(=O)NCC3CCC3)C2)C1` (single isomer, unassigned) [2-3 Isomer 1], in assay [1], the “pEC50 M1” value is recorded as 7.39 and the “% Emax cf. ACh (M1)” value came to 108%. In addition, in assay [2], the “% Emax cf. ACh (M2)” value is listed as 14%. Moreover, in assay [3], the “pEC50 M3” value is 4.70 and the “% Emax cf. ACh (M3)” value worked out at 15%. For the same compound, in assay [4], the “pEC50 M4” value was 6.77 and the “% Emax cf. ACh (M4)” value is reported as 100%.

Consider `CCOC(=O)N1CCC2(CC(N3C[C@@H]4[C@H](C3)[C@H]4C(=O)NC3(C)CCC3)C2)C1` (single isomer, unassigned) [2-4 Isomer 2], for which, in assay [1], the “pEC50 M1” value is 7.27 and the “% Emax cf. ACh (M1)” value came out at 112%. In assay [2], the “% Emax cf. ACh (M2)” value is reported as 18%. In assay [3], the “pEC50 M3” value was 4.70 and the “% Emax cf. ACh (M3)” value came out at 1%. In addition, in assay [4], the “pEC50 M4” value was found to be 6.81 and the “% Emax cf. ACh (M4)” value is listed as 94%.

`CCOC(=O)N1CCC2(CC(N3C[C@@H]4[C@H](C3)[C@H]4C(=O)N(C)C(C)C)C2)C1` (single isomer, unassigned) [2-8 Isomer 2]: in assay [1], the “pEC50 M1” value came to 7.52 and the “% Emax cf. ACh (M1)” value is 110%. Also, in assay [2], the “% Emax cf. ACh (M2)” value stood at 15%. In addition, in assay [3], the “pEC50 M3” value is 4.70 and the “% Emax cf. ACh (M3)” value stood at 17%. Moreover, in assay [4], the “pEC50 M4” value amounted to 7.00 and the “% Emax cf. ACh (M4)” value is given as 92%.

For the compound `CCOC(=O)N1CCC2(CC(N3C[C@@H]4[C@H](C3)[C@H]4C(=O)N3CCCCC3)C2)C1` (single isomer, unassigned) [2-13 Isomer 2], in assay [1], the “pEC50 M1” value is listed as 6.94 and the “% Emax cf. ACh (M1)” value was 83%. For the same compound, the “% Emax cf. ACh (M2)” value in assay [2] is given as 51%. For the same compound, in assay [3], the “pEC50 M3” value is listed as 4.70 and the “% Emax cf. ACh (M3)” value is reported as 38%. Further, in assay [4], the “pEC50 M4” value amounted to 6.32 and the “% Emax cf. ACh (M4)” value is reported as 72%.

For `CCOC(=O)N1CCC2(CC(N3C[C@@H]4[C@H](C3)[C@H]4C(=O)N3CCCC[C@H]3C)C2)C1` (single isomer, unassigned) [2-14 Isomer 2], in assay [1], the “pEC50 M1” value was 7.72 and the “% Emax cf. ACh (M1)” value turned out to be 111%. In assay [2], the “% Emax cf. ACh (M2)” value is listed as 62%. In assay [3], the “pEC50 M3” value is 4.85 and the “% Emax cf. ACh (M3)” value came to 100%. Also, in assay [4], the “pEC50 M4” value is reported as 7.16 and the “% Emax cf. ACh (M4)” value was determined as 93%.

As for `CCOC(=O)N1CCC2(CC(N3C[C@@H]4[C@H](C3)[C@H]4C(=O)N3CCCCCC3)C2)C1` (single isomer, unassigned) [2-16 Isomer 1], in assay [1], the “pEC50 M1” value was found to be 7.29 and the “% Emax cf. ACh (M1)” value is 30%. The “% Emax cf. ACh (M2)” value in assay [2] is 53%. For the same compound, in assay [3], the “pEC50 M3” value turned out to be 4.70 and the “% Emax cf. ACh (M3)” value worked out at 45%. Besides, in assay [4], the “pEC50 M4” value came to 4.70 and the “% Emax cf. ACh (M4)” value amounted to 11%.

With `CCOC(=O)N1CCC2(CC(N3C[C@@H]4[C@H](C3)[C@H]4C(=O)N3CCCCCC3)C2)C1` (single isomer, unassigned) [2-16 Isomer 2], in assay [1], the “pEC50 M1” value was determined as 7.79 and the “% Emax cf. ACh (M1)” value amounted to 94%. Further, the “% Emax cf. ACh (M2)” value in assay [2] came out at 87%. In addition, in assay [3], the “pEC50 M3” value is 4.70 and the “% Emax cf. ACh (M3)” value is on record as 59%. Also, in assay [4], the “pEC50 M4” value came to 7.42 and the “% Emax cf. ACh (M4)” value worked out at 75%.

With `CCOC(=O)N1CCC2(CC(N3C[C@@H]4[C@H](C3)[C@H]4C(=O)N3CCCOCC3)C2)C1` (single isomer, unassigned) [2-17 Isomer 2], in assay [1], the “pEC50 M1” value was 7.19 and the “% Emax cf. ACh (M1)” value turned out to be 96%. Further, the “% Emax cf. ACh (M2)” value in assay [2] is listed as 7%. Besides, in assay [3], the “pEC50 M3” value worked out at 4.70 and the “% Emax cf. ACh (M3)” value worked out at 20%. In assay [4], the “pEC50 M4” value is recorded as 6.55 and the “% Emax cf. ACh (M4)” value turned out to be 63%.

Regarding `CCOC(=O)N1CCC2(CC(N3C[C@@H]4[C@H](C3)[C@H]4C(=O)N(CC)OC)C2)C1` (single isomer, unassigned) [2-24 Isomer 2], in assay [1], the “pEC50 M1” value is given as 7.47 and the “% Emax cf. ACh (M1)” value was 115%. Also, in assay [2], the “% Emax cf. ACh (M2)” value is listed as 11%. Moreover, in assay [3], the “pEC50 M3” value is on record as 4.73 and the “% Emax cf. ACh (M3)” value was determined as 47%. Moreover, in assay [4], the “pEC50 M4” value was 7.30 and the “% Emax cf. ACh (M4)” value came out at 102%.

With `CCOC(=O)N1CCC2(CC(N3C[C@@H]4[C@H](C3)[C@H]4c3csc(C)n3)C2)C1` (single isomer, unassigned) [2-30 Isomer 2], in assay [1], the “pEC50 M1” value worked out at 6.85 and the “% Emax cf. ACh (M1)” value is on record as 86%. Moreover, the “% Emax cf. ACh (M2)” value in assay [2] worked out at 34%. In assay [3], the “pEC50 M3” value stood at 4.70 and the “% Emax cf. ACh (M3)” value stood at 7%. Moreover, in assay [4], the “pEC50 M4” value was 7.57 and the “% Emax cf. ACh (M4)” value was found to be 88%.

For `CCOC(=O)N1C[C@H]2CC[C@@H]1CC2N1C[C@@H]2[C@H](C1)[C@H]2C(=O)N(CC)CC` (single isomer, unassigned) [8-5 Isomer 1], in assay [1], the “pEC50 M1” value was found to be 6.89 and the “% Emax cf. ACh (M1)” value stood at 106%. Besides, in assay [2], the “% Emax cf. ACh (M2)” value is given as 6%. In addition, in assay [3], the “pEC50 M3” value is on record as 4.70 and the “% Emax cf. ACh (M3)” value was determined as 6%. In assay [4], the “pEC50 M4” value stood at 5.72 and the “% Emax cf. ACh (M4)” value came out at 47%.

Take `CCOC(=O)N1C[C@H]2CC[C@@H]1CC2N1C[C@@H]2[C@H](C1)[C@H]2C(=O)N(CC)CC` (single isomer, unassigned) [8-5 Isomer 2]: in assay [1], the “pEC50 M1” value is recorded as 7.05 and the “% Emax cf. ACh (M1)” value is reported as 39%. The “% Emax cf. ACh (M2)” value in assay [2] is 2%. Also, in assay [3], the “pEC50 M3” value turned out to be 4.70 and the “% Emax cf. ACh (M3)” value amounted to 5%. Moreover, in assay [4], the “pEC50 M4” value was found to be 4.70 and the “% Emax cf. ACh (M4)” value is on record as 12%.

Regarding `CCOC(=O)N1CC2CCC1CC2N1C[C@@H]2[C@H](C1)[C@H]2C(=O)N(CC)OC` (single isomer, unassigned) [8-10 Isomer 1], in assay [1], the “pEC50 M1” value came to 7.87 and the “% Emax cf. ACh (M1)” value came to 117%. Besides, the “% Emax cf. ACh (M2)” value in assay [2] is given as 7%. Besides, in assay [3], the “pEC50 M3” value came out at 4.70 and the “% Emax cf. ACh (M3)” value is 21%. Besides, in assay [4], the “pEC50 M4” value came to 7.13 and the “% Emax cf. ACh (M4)” value is 52%.

With `CCOC(=O)N1CC2CC(N3C[C@@H]4[C@H](C3)[C@H]4C(=O)N(CC)CC)CC1C2` (single isomer, unassigned) [11-2 Isomer 2], in assay [1], the “pEC50 M1” value came out at 6.93 and the “% Emax cf. ACh (M1)” value amounted to 113%. Also, in assay [2], the “% Emax cf. ACh (M2)” value is 5%. Also, in assay [3], the “pEC50 M3” value is recorded as 4.70 and the “% Emax cf. ACh (M3)” value came out at 3%. Besides, in assay [4], the “pEC50 M4” value turned out to be 6.02 and the “% Emax cf. ACh (M4)” value is 65%.
